Molecules are shown by their SMILES. Like-named read-outs stand apart in the source and are kept apart here.

Assay [1] addresses B*4002 (B61) (Homo sapiens, UniProt P01889, A65T/A93T/A95T/D138N/D201E/D98Y/E176V/E204Q/E69K/K202T/N87E/Q56L/Q94N/R180L/S48T/Y33H/Y91S). Put plainly: B44 supertype peptide binding, B*4002. To be noted: read-out: B* 4002.
The target in assay [2] is B*4001(B60) (Homo sapiens, UniProt P01889, A65T/A93T/A95T/D138N/D98Y/E176V/E69K/N87E/Q56L/Q94N/R180L/S121R/S35A/S48T/T167S/V36M/W171L/Y33H/Y91S). Nature of the assay: B44 supertype peptide binding, B*4001. To be noted: read-out: B* 4001.
In assay [3] the target is B*1801 (Homo sapiens, UniProt P01889, A329T/A93T/A95T/C349S/D201E/D54G/D98Y/E176V/E187T/E204Q/E69T/K202T/Q94N/R155S/R180L/S121R/V306I/Y140S/Y195H/Y33H/Y91S). Put plainly: B44 supertype peptide binding, B*1801.
For assay [4], the system named is B44 supertype (B*1801, B*4001, B*4002, B*4402, B*4403, B*4501). Nature of the assay: B44 supertype cross-binding (degeneracy, number of alleles bound). Further details: species or system human. To be noted: number of the six B44 alleles bound.
For assay [5], the target named is B*4403 (Homo sapiens, UniProt P01889, A223V/A65T/A93T/A95T/D201E/D98Y/E176V/E187L/E204Q/E69K/G107R/H137Y/K202T/L105A/L119I/N104T/N87E/Q56L/Q94N/R106L/R155S/R180L/S101N/S121R/S35A/S48T/T118I/V36M/W191S/Y140D/Y91S). Put plainly: B44 supertype peptide binding, B*4403. To be noted: read-out: B* 4403.
In assay [6] the target is B*4402 (Homo sapiens, UniProt P01889, A223V/A65T/A93T/A95T/D201E/D98Y/E176V/E187L/E204Q/E69K/G107R/H137Y/K202T/L105A/L119I/N104T/N87E/Q56L/Q94N/R106L/R155S/R180D/S101N/S121R/S35A/S48T/T118I/V36M/W191S/Y140D/Y91S). Put plainly: B44 supertype peptide binding, B*4402. To be noted: read-out: B* 4402.
The target of assay [7] is B*4501 (Homo sapiens, UniProt P01889, A329T/A65T/A93T/A95T/C349S/D138N/D201E/D98Y/E176V/E187L/E204Q/E69K/H137Y/K202T/L119W/N87E/Q56L/Q94N/R155S/R180D/S121R/S35A/S48T/V127L/V306I/V36M/W191S/Y140L/Y33H/Y91S). Put plainly: B44 supertype peptide binding, B*4501.
Setting [8] is: Table 28: p53-derived B44 peptides.
Where [9] appears, read: Table 29: MAGE2-derived B44 peptides.
Setting [10] is: Table 29: MAGE2-derived B44 peptides, read-out: B* 4501.

Consider `CC(C)C[C@H](NC(=O)[C@H](CCC(=O)O)NC(=O)[C@H](CC(C)C)NC(=O)[C@H](C)NC(=O)[C@H](CCC(=O)O)NC(=O)[C@H](CC(N)=O)NC(=O)[C@H](CC(C)C)NC(=O)[C@H](CCC(=O)O)NC(=O)[C@@H](N)CCCNC(=N)N)C(=O)O` [compound 608], for which the IC50 in assay [1] (setting [8]) worked out at 0.03 µM; in assay [2] (setting [8]), 0.015 µM; in assay [3] (setting [8]), 3 µM; in assay [5] (setting [8]), 0.0011 µM. This compound returned a Degeneracy in assay [4] (setting [8]) of 4.

Regarding `CC(C)[C@H](NC(=O)[C@H](CO)NC(=O)[C@@H]1CCCN1C(=O)[C@H](CC(=O)O)NC(=O)[C@H](CO)NC(=O)[C@H](CCC(N)=O)NC(=O)[C@@H]1CCCN1C(=O)[C@H](CCC(=O)O)NC(=O)[C@@H](N)CCC(=O)O)C(=O)O` [compound 637], the IC50 in assay [1] (setting [8]) was above 10 µM; in assay [2] (setting [8]), above 10 µM; in assay [6] (setting [8]), 5.97 µM; in assay [3] (setting [8]), 9.45 µM; in assay [7] it was 1.62 µM; in assay [5] (setting [8]), 1.51 µM. This compound yielded a Degeneracy in assay [4] (setting [8]) of 0.

Take `CC(C)C[C@H](NC(=O)[C@H](CC(C)C)NC(=O)[C@H](Cc1ccccc1)NC(=O)[C@H](Cc1c[nH]cn1)NC(=O)[C@@H](NC(=O)[C@H](CC(C)C)NC(=O)[C@H](CCC(=O)O)NC(=O)[C@@H](N)C(C)C)C(C)C)C(=O)O` [compound 671]: the IC50 was found to be 0.031 µM in assay [1] (setting [9]), 0.005 µM in assay [3] (setting [9]), 2.43 µM in assay [7] (setting [10]) and 0.0012 µM in assay [5] (setting [9]). For the same compound, the Degeneracy in assay [4] (setting [9]) was 4.

With `CC[C@H](C)[C@H](N)C(=O)N[C@@H](CCC(=O)O)C(=O)NCC(=O)N[C@@H](CC(=O)O)C(=O)N[C@@H](CS)C(=O)N[C@@H](C)C(=O)N1CCC[C@H]1C(=O)N[C@@H](CCC(=O)O)C(=O)N[C@@H](CCC(=O)O)C(=O)N[C@@H](CCCCN)C(=O)N[C@H](C(=O)O)[C@@H](C)CC` [compound 700], the IC50 in assay [1] (setting [9]) was above 10 µM; in assay [2] (setting [9]), above 10 µM; in assay [6] (setting [9]), 2.63 µM; in assay [3] (setting [9]), 0.844 µM; in assay [7] (setting [10]) it was 0.183 µM; in assay [5] (setting [9]) it was 0.486 µM. In assay [4] (setting [9]), this compound had a Degeneracy of 2.

For the compound `CC(C)C[C@H](NC(=O)CNC(=O)[C@H](CCC(=O)O)NC(=O)[C@H](CCC(=O)O)NC(=O)[C@@H]1CCCN1)C(=O)N[C@@H](CCC(=O)O)C(=O)N[C@@H](C)C(=O)N[C@@H](CCCNC(=N)N)C(=O)NCC(=O)O` [compound 705], the IC50 was above 10 µM in assay [1] (setting [9]); 0.292 µM in assay [2] (setting [9]); above 10 µM in assay [6] (setting [9]); 1.97 µM in assay [7] (setting [10]); 2.09 µM in assay [5] (setting [9]). Moreover, in assay [4] (setting [9]), the Degeneracy is listed as 1.

As to `CC[C@H](C)[C@H](NC(=O)[C@H](Cc1c[nH]cn1)NC(=O)[C@@H]1CCCN1C(=O)[C@H](CCC(=O)O)NC(=O)CN)C(=O)N[C@@H](CO)C(=O)N[C@@H](Cc1ccc(O)cc1)C(=O)O` [compound 711], the IC50 was 6.72 µM in assay [1] (setting [9]); above 10 µM in assay [6] (setting [9]); 8.83 µM in assay [3] (setting [9]); above 10 µM in assay [7] (setting [10]); 0.272 µM in assay [5] (setting [9]). Also, the Degeneracy in assay [4] (setting [9]) is given as 1.

For `CC(C)C[C@H](NC(=O)CNC(=O)[C@H](CC(C)C)NC(=O)[C@H](C)NC(=O)[C@H](CCC(=O)O)NC(=O)CNC(=O)[C@H](CCCNC(=N)N)NC(=O)[C@H](C)NC(=O)[C@H](CCC(=O)O)NC(=O)[C@H](CC(C)C)NC(=O)CNC(=O)[C@H](CCC(=O)O)NC(=O)[C@@H](N)CCC(=O)O)C(=O)O` [compound 713], the IC50 in assay [1] (setting [9]) is 18.5 µM; in assay [2] (setting [9]), 3.69 µM; in assay [6] (setting [9]) it was 2.51 µM; in assay [7] (setting [10]), 5.86 µM; in assay [5] (setting [9]), 4.47 µM. In addition, the Degeneracy in assay [4] (setting [9]) stood at 0.

For the origin of these results see patent EP1903056A2, “HLA-A1, -A2 -A3, -A24, -B7, and -B44 tumor associated antigen peptides and compositions” (priority 2002, dated 2004).
